This is an account of results in publication PMC9569420 (Communications Biology, 2022).

Amino acid sequences for entries named in this document (tags omitted). Residues count along the entry.
UniProt Q9NZJ5, 30-1116: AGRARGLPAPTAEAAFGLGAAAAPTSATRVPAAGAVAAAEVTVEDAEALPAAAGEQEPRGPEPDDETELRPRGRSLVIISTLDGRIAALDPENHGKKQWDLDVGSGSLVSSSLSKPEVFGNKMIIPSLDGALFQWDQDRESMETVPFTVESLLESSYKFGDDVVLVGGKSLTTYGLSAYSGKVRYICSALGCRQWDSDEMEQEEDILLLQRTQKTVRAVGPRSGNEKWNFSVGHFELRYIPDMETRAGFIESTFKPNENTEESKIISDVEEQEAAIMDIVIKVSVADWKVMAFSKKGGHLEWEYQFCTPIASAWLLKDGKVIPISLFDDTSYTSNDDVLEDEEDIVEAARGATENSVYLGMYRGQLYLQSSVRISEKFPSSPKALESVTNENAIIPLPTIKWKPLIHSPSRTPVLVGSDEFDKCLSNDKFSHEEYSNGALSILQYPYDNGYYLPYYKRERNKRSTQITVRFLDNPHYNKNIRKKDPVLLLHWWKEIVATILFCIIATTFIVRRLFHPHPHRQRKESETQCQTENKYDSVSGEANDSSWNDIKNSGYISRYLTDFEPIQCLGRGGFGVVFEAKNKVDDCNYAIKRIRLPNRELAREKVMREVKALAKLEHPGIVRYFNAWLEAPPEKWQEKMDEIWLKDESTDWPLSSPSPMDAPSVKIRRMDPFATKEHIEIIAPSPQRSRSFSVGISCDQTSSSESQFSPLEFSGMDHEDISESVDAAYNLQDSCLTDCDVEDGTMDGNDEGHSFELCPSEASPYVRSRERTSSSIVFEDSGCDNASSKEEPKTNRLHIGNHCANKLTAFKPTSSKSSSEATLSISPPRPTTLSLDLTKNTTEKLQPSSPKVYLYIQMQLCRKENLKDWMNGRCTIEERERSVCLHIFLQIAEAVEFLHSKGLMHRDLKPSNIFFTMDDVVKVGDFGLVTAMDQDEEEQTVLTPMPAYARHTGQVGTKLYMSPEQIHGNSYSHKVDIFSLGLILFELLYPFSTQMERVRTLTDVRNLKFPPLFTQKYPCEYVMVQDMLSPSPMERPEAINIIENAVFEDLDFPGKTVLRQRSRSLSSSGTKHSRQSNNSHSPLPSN

Structures are written as SMILES.

The assay deals with T1, EIF2AK3 (Homo sapiens, UniProt Q9NZJ5).
T1 construct: purchased Reaction Biology Corporation
Description: HotSpot kinase assay. It is filed as biochemical. As to conditions: read-out: IC50 (M) of Control Compound.

Usually IC50 stands for the midpoint of a concentration-inhibition curve. Turning to `Cn1cc(-c2ccc3c(c2)CCN3C(=O)Cc2cccc(C(F)(F)F)c2)c2c(N)ncnc21` [GSK-2606414, reference compound], the IC50 stood at 2.76e-09 M.
